# Only a part is listed here, and it is no random draw. Calls of active or inactive are those of the source.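 How the source made its calls: active means activation above the mean of all tested compounds plus 3 SD (cut at about 21% in these data); inactive means the rest.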
# Amino acid sequences for entries named in this document (tags omitted). A change or cut given only in a name is not applied to a line headed by its entry.
# UniProt P42574: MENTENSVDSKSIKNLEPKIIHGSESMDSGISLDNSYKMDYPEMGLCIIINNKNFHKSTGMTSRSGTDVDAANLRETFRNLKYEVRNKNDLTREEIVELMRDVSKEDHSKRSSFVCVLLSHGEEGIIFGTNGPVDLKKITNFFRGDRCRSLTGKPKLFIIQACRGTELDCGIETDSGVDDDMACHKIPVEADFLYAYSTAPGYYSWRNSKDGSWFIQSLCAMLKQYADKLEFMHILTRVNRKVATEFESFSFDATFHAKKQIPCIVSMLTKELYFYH
# Biological target: Caspase-3 (Homo sapiens) (UniProt P42574)
# Experiment: activators of human procaspase-3 D3A mutant, primary screen, biochemical, absorbance, PC-3 D3A mutant, single concentration (AID 463141);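 further: 0% = DMSO alone and 100% = DMSO wells spiked with extra 5 µM PC-3 D3A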
# Settings: recombinant procaspase-3 D3A, Ac-DEVD-pNA absorbance 405 nm; at 8.5 µM; stronger effect = higher value
row,Structure (SMILES),activation
1,CCN(N=Nc1nonc1N)c1nonc1N,inactive: 3.45%
2,O=[N+]([O-])c1cc([N+](=O)[O-])c(CCN2CCOCC2)c([N+](=O)[O-])c1,inactive: 0.34%
3,Cc1cc(SC(NC(=O)c2ccc(F)cc2)C(Cl)(Cl)Cl)ncn1 (stereo not drawn),inactive: -31.2%
4,CCOP(=O)(Nc1ccccc1)OCC,inactive: -7.25%
5,CN(C(=O)Cc1ccc(Cl)c(Cl)c1)[C@H]1CCCC[C@@H]1N1CCCC1,inactive: 6.94%
6,Cc1ccc(NP(=O)(Oc2ccccc2F)Oc2ccccc2F)nc1,inactive: -4.85%
7,O=P(Nc1nc2ccc(Cl)cc2s1)(c1ccccc1)c1ccccc1,inactive: 2.27%
8,CC(=O)Nc1ccc([As](=O)(O)O)cc1,inactive: 2.62%
9,O=C(O)c1ccccc1[As](=O)(O)O,inactive: 2.09%
10,CC(C)NC(=O)NP(=O)(Oc1ccccc1)Oc1ccccc1,inactive: 4.98%
11,CCN(CC)C(=S)SC(NC=O)C(Cl)(Cl)Cl (stereo not drawn),inactive: -6.48%
12,O=[N+]([O-])c1cc([N+](=O)[O-])c(-c2ccn[nH]2)s1,inactive: 4.32%
13,ClCCSc1nnc(-c2cccnc2)o1,inactive: 7.95%
14,CC(C)c1ccc(OP(=O)(Nc2ccccn2)Oc2ccccc2F)cc1 (stereo not drawn),inactive: 0.71%
15,Cc1ccc(OP(=O)(Nc2ccc([N+](=O)[O-])cn2)Oc2ccc(C)cc2)cc1,inactive: 0.33%
16,Cc1ccc2nc3c(c(C)c2c1)CC(C(Cl)Cl)S3 (stereo not drawn),inactive: 5.19%
17,C[As](=O)(O)c1cccc(C(=O)O)c1,inactive: -3.34%
18,O=[As](O)(c1ccc(O)cc1)c1ccccc1O,inactive: -4.2%
19,COc1cc(C(=O)NCC2(N3CCOCC3)CCCCC2)ccc1OCC(C)C,inactive: 11.7%
20,COc1ccc(N/C(=N/P(=O)(N2CCOCC2)N2CCOCC2)N2CCOCC2)cc1,inactive: 1.14%
21,COc1ccc2nc(NP(=O)(c3ccccc3)c3ccccc3)sc2c1,inactive: -3.51%

row,Structure (SMILES),activation
1,COc1cc(I)ccc1[As](=O)(O)O,inactive: -5.3%
2,Cc1c2c(nc3ccccc13)SC(C(Cl)Cl)C2 (stereo not drawn),inactive: -1.11%
3,O=C(OC1CN2CCC1CC2)C12CC3CC(CC(C3)C1)C2 (stereo not drawn),inactive: 10.3%
4,Cc1cc(=O)[nH]c(N[N+](=O)[O-])n1,inactive: -9.42%
5,CCC(C)N(CC(C)C)C(=S)SC(NC(C)=O)C(Cl)(Cl)Cl (stereo not drawn),inactive: -0.94%
6,O=C(OC1CN2CCC1CC2)c1cccc([N+](=O)[O-])c1 (stereo not drawn),inactive: 7.76%
7,CCOC(=O)c1ccc(NC(=O)C(C)(CCl)SC)cc1 (stereo not drawn),inactive: -11.1%
8,O=C(COc1ccccc1)OC1CN2CCC1CC2 (stereo not drawn),inactive: 1.2%
9,O=C(Nc1ccncc1[N+](=O)[O-])c1ccc([N+](=O)[O-])cc1[N+](=O)[O-],inactive: 9.89%
10,COP1(=S)c2c(C)nn(CCC#N)c2N=C(c2ccc(F)cc2)N1C (stereo not drawn),inactive: -2%
11,Cc1cc(SC(NC=O)C(Cl)(Cl)Cl)ncn1 (stereo not drawn),inactive: -20.1%
12,O=P(Nc1ccccn1)(c1cccc2ccccc12)c1cccc2ccccc12,inactive: -6.35%
13,CCOC(=O)Nc1cccc([As](=O)(O)O)c1,inactive: -2.23%
14,Cc1cc(SC(NC(=O)c2ccccc2)C(Cl)(Cl)Cl)nc(C(C)C)n1 (stereo not drawn),inactive: -13.1%
15,CCOC(=O)Nc1ccc([As](=O)(O)O)c(O)c1,inactive: -7.3%
16,Nc1cccc([As](=O)(O)c2ccccc2)c1,inactive: 5.25%
17,O=[As](O)(c1cccs1)c1cccs1,inactive: -9.51%
18,Cc1ccc(OCC(=O)OC2CN3CCC2CC3)cc1 (stereo not drawn),inactive: 7.26%
19,NS(=O)(=O)c1cccc(NC(=O)COC(=O)C(O)(c2ccccc2)c2ccccc2)c1,inactive: 8.28%
20,O=P1(Nc2ccc(Br)cn2)COc2ccccc2OC1,inactive: -5.76%
21,O=P1(Nc2ncccn2)COc2ccccc2OC1,inactive: 7.08%

row,Structure (SMILES),activation
1,CN(C)C1(CNC(=O)c2ccc(S(C)(=O)=O)cc2)CCCCC1,inactive: 1.88%
2,O=C(/C=C/c1ccccc1)OC1CN2CCC1CC2 (stereo not drawn),inactive: -6.22%
3,Cc1nn(-c2ccccc2)c2c1P(=O)(N1CCOCC1)N(C)C(c1ccccc1)=N2 (stereo not drawn),inactive: 3.35%
4,Cc1ccc(C(=O)OC2CN3CCC2CC3)cc1 (stereo not drawn),inactive: 0.46%
5,CC1CCC(C(C)C)C(OP(=O)(Nc2ccccn2)c2ccccc2)C1 (stereo not drawn),inactive: 2.59%
6,CN(C(=O)Cc1ccc(Cl)c(Cl)c1)[C@@H]1CCCC[C@H]1N1CCCC1,inactive: 2.48%
7,CC(C)/C=N\N=C(\N)N[N+](=O)[O-],inactive: -3.68%
8,O=[As](O)(c1ccccc1Br)c1ccccc1Br,inactive: -8.49%
9,CC1(CBr)Cn2c(nc3ccccc3c2=O)S1 (stereo not drawn),inactive: -0.23%
10,COc1ccccc1CNC(=O)COC(=O)C(O)(c1ccccc1)c1ccccc1,inactive: 5.27%
11,Clc1n[nH]nc1-c1nn[nH][15n]1,inactive: 7.14%
12,CC(C)(C)C(=O)NC(Sc1ncccn1)C(Cl)(Cl)Cl (stereo not drawn),inactive: -23.2%
13,CCC1=CC2Cc3nc4ccc(Cl)cc4c(N)c3C(C1)C2 (stereo not drawn),inactive: -6.95%
14,O=P1(Nc2ccccn2)COc2ccccc2OC1,inactive: 0.71%
15,CCOP(=O)(NC(=NC(C)c1ccccc1)NC(C)c1ccccc1)OCC (stereo not drawn),inactive: 5.1%
16,CCOP(=O)(Nc1ccc(C)cn1)OCC,inactive: -5.19%
17,CN(CCCl)Cc1cc(Cl)c(NC2=NCCN2)c(Cl)c1,inactive: -4.56%
18,COc1cc(C2NCCC3(OCCO3)C2(C)C)cc(OC)c1OC (stereo not drawn),inactive: 11.5%
19,CCOP(=O)(Nc1cccc2ccccc12)OCC,inactive: -1.27%
20,Nc1cccc2c([As](=O)(O)O)cccc12,inactive: 3.06%
21,Cc1ccc(NCCc2c([N+](=O)[O-])cc([N+](=O)[O-])cc2[N+](=O)[O-])cc1,inactive: -3.61%

row,Structure (SMILES),activation
1,CCCOP(=S)(Nc1nc(N)cc(=O)[nH]1)OCCC,inactive: 4.65%
2,Cc1cccc(OCC(=O)OC2CN3CCC2CC3)c1 (stereo not drawn),inactive: -0.13%
3,O=[As](O)(c1cccc(O)c1)c1cccc(O)c1,inactive: -7.52%
4,O=C(OC1CN2CCC1CC2)c1ccc(Cl)cc1 (stereo not drawn),inactive: -9.31%
5,O=[As](O)(O)c1cccnc1,inactive: -3.24%
6,COc1cc(C(=O)NCC2(N3CCOCC3)CCCCC2)cc(Cl)c1OC(C)C,inactive: 9.25%
7,CS(=O)(=O)c1ccc(Cl)c(NC(=O)COC(=O)C(O)(c2ccccc2)c2ccccc2)c1,inactive: 3.28%
8,N#CCCN(C(=O)COC(=O)C(O)(c1ccccc1)c1ccccc1)c1ccc(F)cc1,inactive: 3.38%
9,CN(C(=O)Cc1ccccc1)[C@@H]1CC[C@]2(CCCO2)C[C@H]1N1CCCC1,inactive: -9.67%
10,CCOP1(=S)c2c(C)nn(CCC#N)c2N=C(c2ccc(F)cc2)N1C (stereo not drawn),inactive: -7.14%
11,O=[N+]([O-])c1ccc2c(c1)nnn2O,inactive: 6.11%
12,CN(C)C(=O)c1cc([N+](=O)[O-])cc2c1-c1c(cc([N+](=O)[O-])cc1[N+](=O)[O-])C2=O,inactive: -11.1%
13,CN(C(=O)Cc1ccc(Cl)c(Cl)c1)[C@H]1CC[C@@]2(CCCO2)C[C@@H]1N1CCCC1,inactive: -2.72%
14,NC(=O)Nc1ccc([As](=O)(O)O)cc1,inactive: 5.8%
15,O=C(O)COc1ccc([As](=O)(O)O)cc1[N+](=O)[O-],inactive: -6.1%
16,Nc1ccccc1[As](=O)(O)c1ccccc1,inactive: 0.61%
17,CCOP1(=S)c2c(C)nn(CCC#N)c2N=C(c2ccccc2F)N1C (stereo not drawn),inactive: 14%
18,O=P(Nc1nccs1)(Oc1ccccc1)Oc1ccccc1,inactive: -3.55%
19,O=P(Nc1nccs1)(c1ccccc1)c1nc2ccccc2s1 (stereo not drawn),inactive: -26.8%
20,CS(=O)(=O)c1cc([N+](=O)[O-])c2no[n+]([O-])c2c1,inactive: -4.09%
